Experimental data from US20110319464A1, “METHODS FOR TREATING BENIGN PROSTATIC HYPERPLASIA” (KISSEI PHARMACEUTICAL CO., LTD., priority 2007, published 2011).

Test: Pharmacokinetic Study on Silodosin (Study US011), once daily for seven days, fed state

For `C[C@H](Cc1cc2c(c(C(N)=O)c1)N(CCCO)CC2)NCCOc1ccccc1OCC(F)(F)F` [Silodosin], the “Blood Plasma Concentrations” value (4 mg once daily 7 days, time 0.0 h (Day 1), individual subjects) was 0.00 ng/mL, the “Blood Plasma Concentrations” value (4 mg once daily 7 days, time 0.0 h (Day 1), mean) was 0.00 ng/mL and the “Blood Plasma Concentrations” value (4 mg once daily 7 days, time 0.3 h, individual subjects) was 0.00 ng/mL. The “Blood Plasma Concentrations” value (4 mg once daily 7 days, time 0.3 h, mean) was 0.00 ng/mL, the “Blood Plasma Concentrations” value (4 mg once daily 7 days, time 0.5 h, individual subjects) was 0.00 ng/ml (4×) and 1.48 ng/ml and 1.43 ng/ml and 0.51 ng/ml and 5.48 ng/ml and 0.59 ng/ml and the “Blood Plasma Concentrations” value (4 mg once daily 7 days, time 0.5 h, mean) was 1.05 ng/mL. The “Blood Plasma Concentrations” value (4 mg once daily 7 days, time 1.0 h, individual subjects) was 2.09 ng/mL and 23.99 ng/mL and 12.07 ng/mL and 15.32 ng/mL and 5.75 ng/mL and 21.73 ng/mL and 3.77 ng/mL and 0.52 ng/mL and 3.16 ng/mL, the “Blood Plasma Concentrations” value (4 mg once daily 7 days, time 1.0 h, mean) was 9.82 ng/mL and the “Blood Plasma Concentrations” value (4 mg once daily 7 days, time 1.5 h, individual subjects) was 21.09 ng/mL and 27.06 ng/mL and 12.49 ng/mL and 31.22 ng/mL and 11.36 ng/mL and 33.78 ng/mL and 14.50 ng/mL and 3.65 ng/mL and 6.54 ng/mL. For the same molecule, the “Blood Plasma Concentrations” value (4 mg once daily 7 days, time 1.5 h, mean) was 17.97 ng/mL, the “Blood Plasma Concentrations” value (4 mg once daily 7 days, time 2.0 h, individual subjects) was 39.89 ng/mL and 20.22 ng/mL and 12.40 ng/mL and 39.39 ng/mL and 13.54 ng/mL and 40.29 ng/mL and 16.22 ng/mL and 11.16 ng/mL and 31.67 ng/mL and the “Blood Plasma Concentrations” value (4 mg once daily 7 days, time 2.0 h, mean) was 24.98 ng/mL. The “Blood Plasma Concentrations” value (4 mg once daily 7 days, time 3.0 h, individual subjects) was 21.82 ng/mL and 12.50 ng/mL and 11.54 ng/mL and 35.57 ng/mL and 13.29 ng/mL and 30.14 ng/mL and 19.72 ng/mL and 20.28 ng/mL and 35.31 ng/mL, the “Blood Plasma Concentrations” value (4 mg once daily 7 days, time 3.0 h, mean) was 22.24 ng/mL and the “Blood Plasma Concentrations” value (4 mg once daily 7 days, time 4.0 h, individual subjects) was 20.90 ng/mL and 9.70 ng/mL and 9.88 ng/mL and 26.51 ng/mL and 12.01 ng/mL and 17.04 ng/mL and 15.06 ng/mL and 15.53 ng/mL and 20.33 ng/mL. The “Blood Plasma Concentrations” value (4 mg once daily 7 days, time 4.0 h, mean) was 16.33 ng/mL, the “Blood Plasma Concentrations” value (4 mg once daily 7 days, time 6.0 h, individual subjects) was 7.15 ng/mL and 4.71 ng/mL and 5.52 ng/mL and 10.22 ng/mL and 6.99 ng/mL and 6.78 ng/mL and 6.49 ng/mL and 6.74 ng/mL and 5.45 ng/mL and the “Blood Plasma Concentrations” value (4 mg once daily 7 days, time 6.0 h, mean) was 6.67 ng/mL. The “Blood Plasma Concentrations” value (4 mg once daily 7 days, time 12.0 h, individual subjects) was 2.41 ng/mL and 2.80 ng/mL and 3.23 ng/mL and 4.00 ng/mL and 2.70 ng/mL and 4.93 ng/mL and 3.50 ng/mL and 3.57 ng/mL and 1.81 ng/mL, the “Blood Plasma Concentrations” value (4 mg once daily 7 days, time 12.0 h, mean) was 3.22 ng/mL and the “Blood Plasma Concentrations” value (4 mg once daily 7 days, time 16.0 h, individual subjects) was 1.53 ng/mL and 2.54 ng/mL and 2.46 ng/mL and 3.12 ng/mL and 1.84 ng/mL and 3.64 ng/mL and 2.62 ng/mL and 2.87 ng/mL and 1.26 ng/mL. For the same molecule, the “Blood Plasma Concentrations” value (4 mg once daily 7 days, time 16.0 h, mean) was 2.43 ng/mL, the “Blood Plasma Concentrations” value (4 mg once daily 7 days, time 24.0 h, individual subjects) was 1.04 ng/mL and 1.42 ng/mL and 1.98 ng/mL and 3.01 ng/mL and 2.04 ng/mL and 3.07 ng/mL and 1.59 ng/mL and 1.83 ng/mL and 1.09 ng/mL and the “Blood Plasma Concentrations” value (4 mg once daily 7 days, time 24.0 h, mean) was 1.90 ng/mL. The “Blood Plasma Concentrations” value (4 mg once daily 7 days, time 48.0 h, individual subjects) was 1.44 ng/mL and 2.05 ng/mL and 2.52 ng/mL and 4.68 ng/mL and 2.32 ng/mL and 4.43 ng/mL and 1.90 ng/mL and 1.46 ng/mL and 1.31 ng/mL, the “Blood Plasma Concentrations” value (4 mg once daily 7 days, time 48.0 h, mean) was 2.46 ng/mL and the “Blood Plasma Concentrations” value (4 mg once daily 7 days, time 72.0 h, individual subjects) was 1.60 ng/mL and 1.01 ng/mL and 0.90 ng/mL and 0.67 ng/mL and 1.75 ng/mL and 3.43 ng/mL and 1.99 ng/mL and 2.21 ng/mL and 1.07 ng/mL. For the same molecule, the “Blood Plasma Concentrations” value (4 mg once daily 7 days, time 72.0 h, mean) was 1.63 ng/mL, the “Blood Plasma Concentrations” value (4 mg once daily 7 days, time 96.0 h, individual subjects) was 1.61 ng/mL and 0.84 ng/mL and 1.56 ng/mL and 0.91 ng/mL and 1.37 ng/mL and 2.28 ng/mL and 1.41 ng/mL and 2.65 ng/mL and 1.16 ng/mL and the “Blood Plasma Concentrations” value (4 mg once daily 7 days, time 96.0 h, mean) was 1.53 ng/mL. The “Blood Plasma Concentrations” value (4 mg once daily 7 days, time 120.0 h, individual subjects) was 2.12 ng/mL and 1.05 ng/mL and 1.64 ng/mL and 0.00 ng/mL and 2.73 ng/mL and 4.09 ng/mL and 2.01 ng/mL and 3.22 ng/mL and 1.78 ng/mL, the “Blood Plasma Concentrations” value (4 mg once daily 7 days, time 120.0 h, mean) was 2.07 ng/mL and the “Blood Plasma Concentrations” value (4 mg once daily 7 days, time 144.0 h (Day 7), individual subjects) was 1.05 ng/mL and 1.03 ng/mL and 1.84 ng/mL and 1.53 ng/mL and 0.99 ng/mL and 3.79 ng/mL and 2.12 ng/mL and 2.58 ng/mL and 0.63 ng/mL. The “Blood Plasma Concentrations” value (4 mg once daily 7 days, time 144.0 h (Day 7), mean) was 1.73 ng/mL, the “Blood Plasma Concentrations” value (4 mg once daily 7 days, time 144.3 h, individual subjects) was 1.04 ng/mL and 1.27 ng/mL and 2.01 ng/mL and 1.15 ng/mL and 1.28 ng/mL and 4.21 ng/mL and 2.06 ng/mL and 2.65 ng/mL and 0.57 ng/mL and the “Blood Plasma Concentrations” value (4 mg once daily 7 days, time 144.3 h, mean) was 1.80 ng/mL. The “Blood Plasma Concentrations” value (4 mg once daily 7 days, time 144.5 h, individual subjects) was 0.97 ng/mL and 1.74 ng/mL and 2.01 ng/mL and 2.41 ng/mL and 2.44 ng/mL and 4.55 ng/mL and 5.94 ng/mL and 4.65 ng/mL and 0.55 ng/mL, the “Blood Plasma Concentrations” value (4 mg once daily 7 days, time 144.5 h, mean) was 2.81 ng/mL and the “Blood Plasma Concentrations” value (4 mg once daily 7 days, time 145.0 h, individual subjects) was 4.94 ng/mL and 6.64 ng/mL and 2.82 ng/mL and 19.16 ng/mL and 8.61 ng/mL and 12.10 ng/mL and 17.17 ng/mL and 15.90 ng/mL and 0.57 ng/mL. The “Blood Plasma Concentrations” value (4 mg once daily 7 days, time 145.0 h, mean) was 9.77 ng/mL, the “Blood Plasma Concentrations” value (4 mg once daily 7 days, time 145.5 h, individual subjects) was 11.96 ng/mL and 18.00 ng/mL and 15.00 ng/mL and 28.69 ng/mL and 13.30 ng/mL and 26.92 ng/mL and 15.97 ng/mL and 41.93 ng/mL and 2.02 ng/mL and the “Blood Plasma Concentrations” value (4 mg once daily 7 days, time 145.5 h, mean) was 19.31 ng/mL. For the same molecule, the “Blood Plasma Concentrations” value (4 mg once daily 7 days, time 146.0 h, individual subjects) was 15.50 ng/mL and 30.03 ng/mL and 69.31 ng/mL and 23.50 ng/mL and 26.51 ng/mL and 47.01 ng/mL and 18.75 ng/mL and 43.97 ng/mL and 8.78 ng/mL, the “Blood Plasma Concentrations” value (4 mg once daily 7 days, time 146.0 h, mean) was 31.48 ng/mL and the “Blood Plasma Concentrations” value (4 mg once daily 7 days, time 147.0 h, individual subjects) was 18.27 ng/mL and 32.65 ng/mL and 71.33 ng/mL and 12.94 ng/mL and 21.81 ng/mL and 63.28 ng/mL and 20.07 ng/mL and 21.68 ng/mL and 30.01 ng/mL. The “Blood Plasma Concentrations” value (4 mg once daily 7 days, time 147.0 h, mean) was 32.45 ng/mL, the “Blood Plasma Concentrations” value (4 mg once daily 7 days, time 148.0 h, individual subjects) was 15.60 ng/mL and 15.37 ng/mL and 38.58 ng/mL and 8.07 ng/mL and 11.71 ng/mL and 37.69 ng/mL and 19.03 ng/mL and 11.61 ng/mL and 18.36 ng/mL and the “Blood Plasma Concentrations” value (4 mg once daily 7 days, time 148.0 h, mean) was 19.56 ng/mL. For the same molecule, the “Blood Plasma Concentrations” value (4 mg once daily 7 days, time 150.0 h, individual subjects) was 7.06 ng/ml (2×) and 6.54 ng/ml and 8.23 ng/ml and 5.23 ng/ml and 6.84 ng/ml and 14.41 ng/ml and 8.27 ng/ml and 7.33 ng/ml, the “Blood Plasma Concentrations” value (4 mg once daily 7 days, time 150.0 h, mean) was 7.89 ng/mL and the “Blood Plasma Concentrations” value (4 mg once daily 7 days, time 152.0 h, individual subjects) was 5.75 ng/mL and 4.22 ng/mL and 5.51 ng/mL and 4.33 ng/mL and 4.88 ng/mL and 10.17 ng/mL and 5.60 ng/mL and 7.43 ng/mL and 5.50 ng/mL. For the same molecule, the “Blood Plasma Concentrations” value (4 mg once daily 7 days, time 152.0 h, mean) was 5.93 ng/mL, the “Blood Plasma Concentrations” value (4 mg once daily 7 days, time 156.0 h, individual subjects) was 3.27 ng/mL and 2.01 ng/mL and 2.60 ng/mL and 2.44 ng/mL and 2.77 ng/mL and 6.17 ng/mL and 3.11 ng/mL and 4.49 ng/mL and 2.92 ng/mL and the “Blood Plasma Concentrations” value (4 mg once daily 7 days, time 156.0 h, mean) was 3.31 ng/mL. The “change in Cmax and AUC on doubling of the silodosin dose” value (4 mg vs 8 mg once daily (Table 3)) was “approximately two-fold increase”, the “Blood Plasma Concentrations” value (8 mg once daily 7 days, Day 7, 0 h (t0), individual subjects) was 1.90 ng/mL and 4.15 ng/mL and 3.94 ng/mL and 4.87 ng/mL and 15.77 ng/mL and 8.04 ng/mL and 1.95 ng/mL and 6.99 ng/mL and 2.40 ng/mL and the “Blood Plasma Concentrations” value (8 mg once daily 7 days, Day 7, 0 h (t0), mean) was 5.56 ng/mL. The “Blood Plasma Concentrations” value (8 mg once daily 7 days, Day 7, 0.25 h, individual subjects) was 2.00 ng/mL and 9.25 ng/mL and 3.64 ng/mL and 13.11 ng/mL and 7.98 ng/mL and 1.60 ng/mL and 9.65 ng/mL and 2.44 ng/mL, the “Blood Plasma Concentrations” value (8 mg once daily 7 days, Day 7, 0.5 h, individual subjects) was 2.01 ng/mL and 40.90 ng/mL and 21.98 ng/mL and 5.69 ng/mL and 16.93 ng/mL and 56.28 ng/mL and 11.63 ng/mL and 14.52 ng/mL and 25.23 ng/mL and the “Blood Plasma Concentrations” value (8 mg once daily 7 days, Day 7, 0.5 h, mean) was 21.69 ng/mL. The “Blood Plasma Concentrations” value (8 mg once daily 7 days, Day 7, 1 h, individual subjects) was 12.58 ng/mL and 46.27 ng/mL and 62.96 ng/mL and 26.49 ng/mL and 113.90 ng/mL and 103.20 ng/mL and 41.51 ng/mL and 24.58 ng/mL and 72.25 ng/mL, the “Blood Plasma Concentrations” value (8 mg once daily 7 days, Day 7, 1 h, mean) was 55.97 ng/mL and the “Blood Plasma Concentrations” value (8 mg once daily 7 days, Day 7, 1.5 h, individual subjects) was 35.49 ng/mL and 39.01 ng/mL and 55.57 ng/mL and 63.87 ng/mL and 129.20 ng/mL and 127.00 ng/mL and 65.51 ng/mL and 32.58 ng/mL and 63.27 ng/mL. For the same molecule, the “Blood Plasma Concentrations” value (8 mg once daily 7 days, Day 7, 1.5 h, mean) was 67.94 ng/mL, the “Blood Plasma Concentrations” value (8 mg once daily 7 days, Day 7, 2 h, individual subjects) was 42.13 ng/mL and 30.68 ng/mL and 62.78 ng/mL and 62.92 ng/mL and 106.10 ng/mL and 113.80 ng/mL and 54.34 ng/mL and 45.40 ng/mL and 56.03 ng/mL and the “Blood Plasma Concentrations” value (8 mg once daily 7 days, Day 7, 2 h, mean) was 63.80 ng/mL. For the same molecule, the “Blood Plasma Concentrations” value (8 mg once daily 7 days, Day 7, 3 h, individual subjects) was 35.86 ng/mL and 17.49 ng/mL and 47.15 ng/mL and 53.17 ng/mL and 88.84 ng/mL and 61.25 ng/mL and 52.40 ng/mL and 51.86 ng/mL and 33.38 ng/mL and the “Blood Plasma Concentrations” value (8 mg once daily 7 days, Day 7, 3 h, mean) was 49.04 ng/mL.

Several values for one entry are separate records, joined by “and”; a condition that tells them apart may be missing. Identical values can stand only once.
